Biological target: T1, 1-phosphatidylinositol 4,5-bisphosphate phosphodiesterase delta-1 (Mus musculus) (UniProt Q8R3B1)
T1 sequence (whole entry): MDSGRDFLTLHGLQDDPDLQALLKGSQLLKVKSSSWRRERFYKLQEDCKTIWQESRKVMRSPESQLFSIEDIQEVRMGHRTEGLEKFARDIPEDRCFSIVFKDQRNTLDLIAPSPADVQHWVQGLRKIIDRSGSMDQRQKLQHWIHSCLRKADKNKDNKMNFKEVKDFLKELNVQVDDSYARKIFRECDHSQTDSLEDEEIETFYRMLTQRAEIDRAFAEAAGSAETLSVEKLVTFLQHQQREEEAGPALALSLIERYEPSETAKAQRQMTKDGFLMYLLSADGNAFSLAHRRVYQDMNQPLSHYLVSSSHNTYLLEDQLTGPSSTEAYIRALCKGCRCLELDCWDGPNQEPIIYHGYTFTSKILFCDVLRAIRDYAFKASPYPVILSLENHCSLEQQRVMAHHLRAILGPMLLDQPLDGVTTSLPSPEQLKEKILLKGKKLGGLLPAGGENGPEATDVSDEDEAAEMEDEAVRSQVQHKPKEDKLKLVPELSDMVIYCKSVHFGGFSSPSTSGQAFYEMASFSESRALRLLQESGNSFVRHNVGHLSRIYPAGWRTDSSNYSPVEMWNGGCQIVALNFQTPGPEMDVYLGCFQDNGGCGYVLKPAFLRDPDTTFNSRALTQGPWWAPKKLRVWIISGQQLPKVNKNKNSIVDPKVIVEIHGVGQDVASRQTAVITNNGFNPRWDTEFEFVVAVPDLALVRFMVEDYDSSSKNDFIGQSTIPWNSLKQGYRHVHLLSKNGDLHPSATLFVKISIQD
Conditions: BaF3, dose <= 500.0 nM, time 6.0 hrs

For CN1CCN(Cc2ccc(NC(=O)[C@@H]3CCN(c4ccc5ncc(-c6ccccn6)n5n4)C3)cc2C(F)(F)F)CC1, the inhibition was “Dose-Dependent Effect”.
